Assay results as given in patent publication US4990663A, “Process for preparing halogenated aromatic amines” (E. I. Du POnt de Nemours and Company, priority 1989, dated 1991).

Test: storage stabilization of molten 3,4-dichloroaniline at 110° C.
Conditions: 0.35 wt. % additive
Method: Round bottom drying ampuls of 20 ml capacity were dried by heating and were then cooled under nitrogen. Ten ml of test samples consisting of molten 3,4-dichloroaniline containing candidate stabilizers were pipetted into the ampuls which were sealed under nitrogen and stored in a 110° C. oven. Periodically an ampul of each sample was removed from the oven and evaluated.

SMILES: NCCO [ethanolamine]
- Color (3 days): Lt yellow
- Color (60 days): Yellow
